# CAL PDZ FP-1 – blocks peptide binding to human CAL PDZ domain | Q9HD26 | purified CAL PDZ, TMR-peptide fluorescence polarization, 1 h | inhibition, % at 20 µM | 330,000 compounds, 0.02% hits | AID 504414;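 active = highest replicate inhibition of at least 40%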;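 note: plate controls were DMSO neutral control wells for no effect and unlabeled competitor peptide control wells for full effect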
#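 Material: tagged CAL PDZ protein CerCALP, purified; buffer or medium: sodium phosphate/NaCl buffer pH 7.4 with TCEP, IgG, Thesit; also added: fluorescent TMR peptide probe; schedule: 1 h incubation at room temperature before polarization reading; technique: fluorescence polarization from S- and P-plane intensities, G-factor corrected; control set: unlabelled peptide and DMSO controls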
# PglD inh – inhibitors of Campylobacter jejuni PglD acetyltransferase; purified PglD enzyme, DTNB colorimetric CoA detection; inhibition, % at 12.5 µM; 360,000 compounds, 0.098% hits; AID 602405; in the data active = inhibition above about 16%, passing the limit was not always enough
# ARNT-TACC3 inh – ARNT/TACC3 interaction disruption; Q9Y6A5; AlphaScreen His-ARNT PAS-B/GST-TACC3 binding, luminescence; TACC3 fragment carries E629A point mutation; inhibition, % at 9.99 µM; 390,000 compounds, 0.66% hits; AID 623870;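 active = mean inhibition of replicates at least 50% and at least half of replicates each reaching 50%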;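 note: 0% = complete ARNT plus TACC3 wells and 100% = ARNT alone without TACC3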
# Vif imaging – inhibitors of HIV Vif. HEK293T cells, Vif self-association by quenched fluorescence, imaging, 24 h. inhibition, % at 7.49 µM. 340,000 compounds, 0.35% hits. AID 602346; in the data active = inhibition above about 50%, passing the limit was not always enough
# Yeast UUG start – modulators of yeast start codon fidelity, primary screen, whole organism, S. cerevisiae, single point, plate reader; S. cerevisiae UUG-firefly luciferase reporter, luminescence/redox ratio; activity score, % at 18.7 µM; 0.13% of 350,000 active; AID 602363, 2012;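 active = replicate mean at a twofold rise or more, about +100% in these data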;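 also: firefly luciferase made from a UUG start codon reports start codon fidelity; reporter light over untreated wells divided by growth signal over untreated wells; some hits fall short of that in this replicate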
# CAL PDZ FP-2 – blocks peptide binding to the human CAL PDZ domain; Q9HD26; purified CAL PDZ, TMR-peptide fluorescence polarization, 1 h; inhibition, % at 24.9 µM; 300,000 compounds, 0.92% hits;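 active = mean inhibition of at least 30% with at least half of replicates also reaching 30%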;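 note: 0% = DMSO neutral control and 100% = excess unlabeled competitor peptide PRC23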
# Starred values were filed as active, the others as inactive; · = not tested or not shown; + = active, no number. Compounds with a hit are over-represented: about 1.6% of the library has one in this group of screens.
# Letters: A = CAL PDZ FP-1; B = PglD inh; C = ARNT-TACC3 inh; D = Vif imaging; E = Yeast UUG start; F = CAL PDZ FP-2
COc1ccc(C(C[N+](=O)[O-])c2c(C)[nH]n(-c3ccccc3)c2=O)cc1 (stereo not drawn)
  A: ·	B: -2	C: 72*	D: 0	E: -8	F: -3

CCN(CC)CCNC(=O)C(=O)Nc1ccc(C(=O)OC)cc1
  A: -1	B: 1	C: -4	D: -1	E: -4	F: +

CCN(CC)C(=O)Nc1ccc(C(=O)OC)cc1
  A: -2	B: -1	C: 3	D: 12	E: -9	F: -7

C[C@@H]1CCCCO[C@H](CN(C)C(=O)Nc2ccc3c(c2)OCO3)[C@@H](C)CN([C@@H](C)CO)C(=O)c2cc(NS(C)(=O)=O)ccc2O1
  A: ·	B: -1	C: 4	D: ·	E: -3	F: ·

Cc1ccc(S(=O)(=O)N[C@H]2CC[C@@H](CCn3cc(-c4cccnc4)nn3)O[C@H]2CO)cc1
  A: ·	B: -5	C: -2	D: ·	E: ·	F: ·

Cc1nnc(SCCn2c(N(C)Cc3ccccc3)nc3c2c(=O)[nH]c(=O)n3C)s1
  A: -3	B: -6	C: ·	D: 62*	E: -6	F: ·

Cc1nnc(SCCn2c(N3CCN(Cc4ccccc4)CC3)nc3c2c(=O)[nH]c(=O)n3C)s1
  A: 0	B: 0	C: -1	D: 3	E: -11	F: -1

Cc1c(N=NC2=C(O)CCCC2=O)c(=O)n(-c2ccccc2)n1C
  A: 0	B: ·	C: 63*	D: 9	E: ·	F: -2

Cc1c(N=Nc2ccc(O)cc2)c(=O)n(-c2ccccc2)n1C
  A: 0	B: ·	C: 14	D: 15	E: ·	F: 2

C=CCN1C(=O)/C(=C/c2ccc(-c3ccc(F)cc3)o2)SC1=S
  A: 0	B: 4	C: 1	D: 82*	E: -16	F: ·

C=CCN1C(=O)/C(=C/c2ccsc2)SC1=S
  A: 30	B: ·	C: ·	D: -2	E: ·	F: -5

COC(Cc1n[nH]c(=S)n1-c1ccc(Cl)cc1)OC
  A: 9	B: 0	C: 51*	D: 6	E: -22	F: -3

COC(Cc1nnc(SC)n1-c1ccc(Cl)cc1)OC
  A: 0	B: 0	C: -4	D: 9	E: -20	F: -3

C[C@H]1CCCCO[C@H](CN(C)S(C)(=O)=O)[C@@H](C)CN([C@@H](C)CO)C(=O)c2cc(NC(=O)c3ccncc3)ccc2O1
  A: ·	B: 18	C: 1	D: ·	E: ·	F: ·

N#Cc1ccc(CSc2nnc(-c3cccs3)n2-c2ccccc2)cc1
  A: ·	B: 2	C: -3	D: 55*	E: -10	F: -6

Cc1cc(C)c2c(CN3CCN(Cc4ccccc4)CC3)cc(=O)oc2c1
  A: -1	B: -1	C: 1	D: 104*	E: 1	F: -10

CC(C)NC(=O)N(C)C[C@@H]1Oc2c(NC(=O)Nc3cccc4ccccc34)cccc2C(=O)N([C@@H](C)CO)C[C@@H]1C
  A: ·	B: -2	C: 12	D: ·	E: 1	F: ·

COc1ccc(CN(C)C[C@H]2OCCCC[C@@H](C)Oc3ccc(NC(=O)CCC(F)(F)F)cc3C(=O)N([C@@H](C)CO)C[C@H]2C)cc1
  A: ·	B: -3	C: -1	D: ·	E: -1	F: ·

O=C(C[C@H]1CC[C@@H]2[C@H](COC[C@@H](O)CN2Cc2nccs2)O1)NCc1ccccc1
  A: ·	B: -3	C: -8	D: ·	E: ·	F: ·

COc1ccc(OC)c(NC(=O)CN2c3cccc4cccc(c34)S2(=O)=O)c1
  A: -1	B: 4	C: 2	D: -9	E: -14	F: -5

COc1ccc(OC)c(NC(=O)C(C)N2c3cccc4cccc(c34)S2(=O)=O)c1 (stereo not drawn)
  A: 0	B: 4	C: 4	D: -5	E: 9	F: 73*

COn1c(=O)c(-c2ccccc2)[n+]([O-])c2ccccc21
  A: -1	B: -7	C: 4	D: 51*	E: -11	F: -4

COn1c(=O)c(-c2ccc(C)cc2)[n+]([O-])c2ccccc21
  A: -1	B: ·	C: 9	D: 5	E: -36	F: -5

COc1ccc(-c2nn(-c3ccccc3)cc2C(=O)N(C)CC(=O)Nc2cccc(F)c2)cc1
  A: -1	B: 1	C: -1	D: -9	E: 11	F: -5

COc1cccc(-c2nn(-c3ccc(C)cc3)cc2C(=O)N(C)CC(=O)Nc2cccc(F)c2)c1
  A: 0	B: -3	C: -12	D: -3	E: 0	F: 47*

O=C(Nc1ccccc1F)N[C@@H]1C=C[C@H](CC(=O)N2CCCCC2)O[C@H]1CO
  A: ·	B: -2	C: 14	D: ·	E: -4	F: ·

CCOc1cc(N2CCOCC2)c(OCC)cc1NC(=O)c1ccc(C)cc1
  A: -1	B: ·	C: 0	D: -4	E: ·	F: -1

CCOc1cc(N2CCOCC2)c(OCC)cc1NC(=O)c1cc(C)cc(C)c1
  A: 1	B: 4	C: -2	D: -3	E: -18	F: 76*

C[C@H](CO)N1C[C@H](C)[C@@H](CN(C)Cc2ccc(Oc3ccccc3)cc2)Oc2c(NC(=O)C3CCCCC3)cccc2C1=O
  A: ·	B: -6	C: -1	D: ·	E: 0	F: ·

C[C@H](NC(=O)C[C@@H]1C[C@H]2c3cc(NC(=O)C4CCC4)ccc3O[C@H]2[C@H](CO)O1)c1ccccc1
  A: ·	B: 3	C: -2	D: ·	E: 3	F: ·

OC1(CC#CCN2CCCCC2)c2ccccc2-c2ccccc21
  A: -2	B: ·	C: -4	D: -2	E: ·	F: -6

OC1(C#CCCN2CCCCC2)c2ccccc2-c2ccccc21
  A: 12	B: 5	C: -1	D: 7	E: -11	F: 50*

CCCCC(=O)NC(c1ccccc1)c1ccc2cccnc2c1O (stereo not drawn)
  A: 0	B: 10	C: -17	D: 0	E: -4	F: ·

CCCCC(=O)NC(c1ccccc1Cl)c1ccc2cccnc2c1O (stereo not drawn)
  A: 0	B: 2	C: 6	D: 8	E: -15	F: 58*

O=C(NC1Cc2ccccc2C1)[C@@H]1[C@@H](CO)[C@@H]2Cn3c(ccc(C4=CCCC4)c3=O)[C@H]1N2
  A: ·	B: -1	C: 12	D: ·	E: ·	F: ·

O=C(N[C@H]1CC[C@H](CCNC(=O)c2cnccn2)O[C@H]1CO)c1ccc2c(c1)OCO2
  A: ·	B: -6	C: -6	D: ·	E: ·	F: ·

CCOC(=O)C1=C(C)NC(C)=C(C(=O)OC)C1c1ccco1 (stereo not drawn)
  A: -1	B: ·	C: 0	D: 5	E: ·	F: 36*

COC(=O)c1sccc1NC(=O)CC1NCCNC1=O (stereo not drawn)
  A: -1	B: ·	C: 1	D: -8	E: ·	F: 130*

COC(=O)c1cc(NC(=O)CC2NCCNC2=O)cc(C(=O)OC)c1 (stereo not drawn)
  A: 4	B: 4	C: -5	D: 9	E: -2	F: -2

O=C(N[C@@H]1CC[C@@H](CCNC(=O)c2ccccc2F)O[C@@H]1CO)c1cnccn1
  A: ·	B: -3	C: 7	D: ·	E: -1	F: ·

CCCS(=O)(=O)Nc1cccc(-c2nc3cccnc3s2)c1
  A: -3	B: -2	C: 46*	D: 3	E: -15	F: -1

O=C(Nc1cccc(-c2nc3cccnc3s2)c1)c1ccco1
  A: -7	B: -6	C: -20	D: 97*	E: -15	F: -1

COc1ccc(-c2ccc3n(c2=O)C[C@H]2[C@H](CO)[C@@H](C(=O)N(C)C)[C@@H]3N2Cc2cncnc2)cc1
  A: ·	B: -2	C: -1	D: ·	E: ·	F: ·

Cc1cc(=O)oc(C)c1C(=O)NCCc1ccc(F)cc1
  A: ·	B: 4	C: 3	D: 4	E: -6	F: 39*

CCOC(=O)CSc1nnc(CNC(=O)c2cccc(C)c2)n1-c1ccccc1OC
  A: ·	B: 2	C: 3	D: 15	E: -6	F: -1

CCOC(=O)CSc1nnc(CNC(=O)c2cccc(C)c2)n1C
  A: 4	B: ·	C: 10	D: -6	E: ·	F: 76*

COc1ccc(C(=O)CSc2nnc(CNC(=O)c3ccc(OC)c(OC)c3)n2C)cc1
  A: 0	B: ·	C: -4	D: 5	E: ·	F: 1

# Assay outcomes: PubChem BioAssay, Broad Institute
